## Ab-14 light chain CDR variants: yeast mating affinities

The target is the same throughout: PDVDLGDISGINAS, from the HR2 region of SARS-CoV-2 spike.

Parent scFv Ab-14: VH joined to VL by three GGGGS repeats. Changes lie in the light chain CDRs alone.
VH: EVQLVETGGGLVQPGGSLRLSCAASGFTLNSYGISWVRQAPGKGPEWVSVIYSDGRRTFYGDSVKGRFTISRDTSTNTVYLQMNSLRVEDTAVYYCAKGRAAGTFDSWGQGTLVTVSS
VL: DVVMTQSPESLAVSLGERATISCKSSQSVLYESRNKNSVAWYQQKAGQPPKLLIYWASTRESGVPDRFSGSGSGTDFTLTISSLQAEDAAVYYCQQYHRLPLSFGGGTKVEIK

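The starting antibody came from a phage panning campaign against this peptide. AAYL50 was designed without a model: most single CDR substitutions and a random sample of double and triple ones. Affinity was read by AlphaSeq, a pooled yeast mating assay with surface-displayed partners. The frequency of each diploid, read from paired DNA barcodes, reflects how well the two displayed proteins bind. Each replicate has its own calibration line, from reference interactions of the BCL2 family. The assay was run in three technical replicates.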

Variants are written as CDR1, CDR2 and CDR3 of the light chain (limits as in the source). Parent: KSSQSVLYESRNKNSVA, WASTRES, QQYHRLPLS. Affinities are written as log10 Kd with Kd in nM; a lower number is a better binder. A pair that was not seen in that replicate is written "nd"; this usually means weak binding, but a binder can also be missed. Three control strains display no target. For library AAYL50, 18% of the pairings with them gave a signal, with a median of 4.19 and one signal in twenty below 2.99, so weak values seen in few replicates may be background. The control count says in how many pairings with the empty strains this scFv gave a signal, with their mean in brackets.

| # | CDR-L1 | CDR-L2 | CDR-L3 | log10 Kd (nM) by replicate | signal with controls |
|---|---|---|---|---|---|
| 1 | KSSQSVLYMKRNKNSVK | WASTRES | QQYHRLPLS | nd / 5.11 / nd | 1/9 (4.55) |
| 2 | KSSQSELYESRNKNSVA | WASTRES | QQYHREPLS | 1.03 / 1.32 / 1.51 | 5/9 (4.53) |
| 3 | KSFQSVLYESRNKNRVA | WASTFES | QQYHRLPLS | nd / nd / nd | 0/9 |
| 4 | KSSQSVLYESRNKNSVA | WASTRHS | QQYHRLPLS | 1.24 / 1.16 / 1.24 | 0/9 |
| 5 | KSSDSVLYPSRNKISVA | WASTRES | QQYHRLPLS | 2.32 / nd / nd | 1/9 (4.31) |
| 6 | KSSQSVLYESWNKNSVA | WAITREA | QQYHRLPLS | 2.26 / 1.61 / 1.75 | 0/9 |
| 7 | KSSQSVFYESRNKNCVA | WASTRES | QQYHRVPLS | 5.53 / nd / nd | 3/9 (4.05) |
| 8 | KSSQSVLYESRNKNSVA | WAATREW | QQYHREPLS | nd / nd / nd | 0/9 |
| 9 | KSSQSVLLESRNKNSVA | DARTRES | QQYHRLPLS | 0.71 / 0.94 / 0.85 | 2/9 (4.72) |
| 10 | KTSQSVLYESRNKGSVA | WFSTRES | QQYHRLPLS | nd / 4.91 / 4.33 | 4/9 (4.64) |
| 11 | KSNQSVLYESRNKNSVA | WASTRES | QQYHRLPLS | 1.28 / 1.04 / 0.95 | 0/9 |
| 12 | KSSQSVLRESRNKNSVA | WASTRES | QQHHRCPLS | 2.80 / 2.59 / 2.93 | 9/9 (4.76) |
| 13 | KISQSVLYECRAKNSVA | WASTRES | QQYHRLPLS | 2.48 / 2.34 / 2.37 | 0/9 |
| 14 | KSSQSVLFESRNKNSCA | WASTRES | QQYHRLPNS | nd / nd / nd | 1/9 (3.63) |
| 15 | KSSQSVLYESRKKNSVA | WASTRES | QQYYNLPLS | 1.96 / 1.60 / 1.78 | 3/9 (4.37) |
| 16 | KSSQSVLYESRNKNSVA | WASTRES | QQYHRLLTS | 1.05 / 1.03 / 1.17 | 3/9 (3.55) |
| 17 | KSSQSVLYESANINSVA | WASKRES | QQYHRLPLS | 2.51 / 2.40 / 2.46 | 0/9 |
| 18 | KSSQSVLYESRNKNSEA | WASTMES | QQYDRLPLS | nd / nd / nd | 1/9 (2.98) |
| 19 | KSSQSVLYESRNKNSVA | WASTREE | QQGHRLPPS | nd / nd / 4.32 | 2/9 (3.17) |
| 20 | KSSDHVLYESRNDNSVA | WASTRES | QQYHRLPLS | 0.82 / 0.89 / 0.76 | 5/9 (4.60) |
| 21 | KSSQSWLYESRNVNSVA | WASTRES | QQYHRLPLS | 0.48 / 0.71 / 0.59 | 1/9 (4.97) |
| 22 | CSSFSVLYESRNKNSVC | WASTRES | QQYHRLPLS | 5.49 / 5.00 / nd | 4/9 (4.34) |
| 23 | KSSQSVLYESRNKNSVA | WASTREM | QAYHDLPLS | 1.37 / 1.71 / 1.54 | 1/9 (5.21) |
| 24 | ISSQSVLYESRGKNSVA | WASTRES | QQYHELPLS | 1.32 / 1.62 / 1.65 | 1/9 (3.41) |
| 25 | KSCQSVLYERRNKNSVA | WASTSES | QQYHRLPLS | nd / nd / nd | 1/9 (3.69) |
| 26 | KKGQSVLYESRNKNSFA | WASTRES | QQYHRLPLS | nd / nd / nd | 2/9 (3.41) |
| 27 | KQSQSVLYESRNKNSVA | WASTRES | QQYNRLPLS | 0.62 / 0.89 / 0.78 | 0/9 |
| 28 | KSLQSVQYESRNKNSVA | WASARES | QQYHRLPLS | 2.03 / 1.93 / 2.18 | 2/9 (4.52) |
| 29 | NSSKSVLYEWRNKNSVA | WASTRES | QQYHRLPLS | 2.26 / 2.13 / 2.25 | 1/9 (4.16) |
| 30 | KSSQSVMYERRNKNSVA | WASHRES | QQYHRLPLS | nd / nd / 4.68 | 0/9 |
| 31 | VSSQSVLYESRNQNSVA | WASTRES | QQYHRLPLS | nd / nd / nd | 0/9 |
| 32 | KSSPSVCYESRNKNSVA | WASTRES | QCYHRLPLS | nd / nd / 1.96 | 0/9 |
| 33 | ESSQSVLYHSRNKNSVA | WASTRES | QQYHRLPAS | nd / nd / nd | 1/9 (3.10) |
| 34 | KSSQSVLYEARNKQSVA | WASTRLS | QQYHRLPLS | 2.26 / 1.96 / 2.26 | 1/9 (2.50) |
| 35 | KSSQSNLYESRNKNSVA | WASTRES | QQYHRLPTT | nd / nd / 2.96 | 0/9 |
| 36 | KSSQQVLYESRNKNSVA | SASTRES | QQYHRLPHS | nd / 5.12 / 4.82 | 5/9 (4.73) |
| 37 | KSSQSVLYESRNWNSVA | WASTRES | LQYHWLPLS | 4.02 / 3.45 / 5.60 | 2/9 (3.29) |
| 38 | KSSNSVMYESRTKNSVA | WASTRES | QQYHRLPLS | 0.70 / 1.13 / 0.68 | 1/9 (3.77) |
| 39 | KSSQKVLYESRNKNSVA | CASTRES | QQYHDLPLS | nd / 2.94 / nd | 0/9 |
| 40 | KSSQSVLYESRNKNCVA | WASTRPS | QTYHRLPLS | nd / nd / nd | 1/9 (1.92) |
| 41 | ESSQSVLVESRNKNSVA | WASTRES | QQYHRLPLS | 1.32 / 1.21 / 1.19 | 1/9 (3.97) |
| 42 | KSSQSVEYESRPKNSVA | WASQRES | QQYHRLPLS | 0.85 / 0.75 / 0.93 | 1/9 (3.79) |
| 43 | KSSQSVLYESRNKNSVA | WKLTRES | QQYHRLPLS | nd / nd / nd | 1/9 (3.67) |
| 44 | KSSCSVLYESDNKNSVA | WASTRES | QQYHRLPLS | 0.57 / 0.64 / 0.79 | 0/9 |
| 45 | KYSQPGLYESRNKNSVA | WASTRES | QQYHRLPLS | 0.25 / 0.45 / 0.41 | 3/9 (4.88) |
| 46 | YSSQSVLYESRNKNSVQ | WWSTRES | QQYHRLPLS | nd / nd / nd | 1/9 (3.79) |

From the list, the first 7 with no signal in any replicate:

CDR-L1,CDR-L2,CDR-L3,log10 Kd (nM) by replicate,signal with controls
KSFQSVLYESRNKNRVA,WASTFES,QQYHRLPLS,nd / nd / nd,0/9
KSSQSVLYESRNKNSVA,WAATREW,QQYHREPLS,nd / nd / nd,0/9
KSSQSVLFESRNKNSCA,WASTRES,QQYHRLPNS,nd / nd / nd,1/9 (3.63)
KSSQSVLYESRNKNSEA,WASTMES,QQYDRLPLS,nd / nd / nd,1/9 (2.98)
KSCQSVLYERRNKNSVA,WASTSES,QQYHRLPLS,nd / nd / nd,1/9 (3.69)
KKGQSVLYESRNKNSFA,WASTRES,QQYHRLPLS,nd / nd / nd,2/9 (3.41)
VSSQSVLYESRNQNSVA,WASTRES,QQYHRLPLS,nd / nd / nd,0/9

Data: MIT Lincoln Laboratory AlphaSeq set, Engelhart et al. 2022, doi:10.1038/s41597-022-01779-4, as distributed in FLAb.